This is a sample that favours compounds with a hit; in the whole collection about 2.2% have one here.
PDI turbidity – PDI (human) enzyme inhibition; P07237; PDI insulin aggregation turbidity, A650, 90 min; inhibition, % at 10 µM; 350,000 compounds, 0.052% hits;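 active = mean inhibition across replicates of 30% or more, whatever share of single replicates reach that level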
ERp5 block – ERp5 (human) disulfide isomerase inhibition. Q15084. ERp5 insulin aggregation, absorbance 650 nm, 90 min. inhibition, % at 9.99 µM. 350,000 compounds, 0.05% hits. AID 651711;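 active = mean replicate inhibition above about 25%, with every replicate also reaching it, limit read from the data, passing the limit was not always enough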
SIRT5 block – blocks human SIRT5 desuccinylation of peptide; Q9NXA8; Purified SirT5, succinyl-peptide AMC, trypsin-coupled fluorescence; inhibition, % at 15 µM; 330,000 compounds, 1.1% hits; AID 652115; in the data active = inhibition above about 15%
FGF22 binding – binders of recombinant human FGF22 by thermal shift | activity (Tm shift, normalised), % at 9.99 µM | SYPRO orange fluorescence; percent of sucrose octasulfate shift, DMSO zero | 340,000 compounds, 1.5% hits | AID 651658;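 active = mean Tm shift, scaled 0 neutral to 100 positive control, at about 1.3% or above, every replicate too, limit read from the data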
UUG fidelity – modulators of start codon recognition fidelity in yeast. S. cerevisiae UUG-firefly luciferase reporter, luminescence/redox ratio. activity score, % at 18.7 µM. 0.13% of 350,000 active. AID 602363;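 active = replicate mean at a twofold rise or more, about +100% in these data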;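 also: firefly luciferase made from a UUG start codon reports start codon fidelity; reporter light over untreated wells divided by growth signal over untreated wells; some hits fall short of that in this replicate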
S100A4 MyoIIA – blocks human S100A4 binding to myosin IIA peptide | P26447 | S100A4/TAMRA-MyoIIA peptide fluorescence polarization | inhibition, % at 10.7 µM | 360,000 compounds, 0.14% hits;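 active = mean inhibition of at least 70% across replicates, with every replicate also reaching that level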
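Material: S100A4 monomer protein | Medium: HEPES pH 7.2 with CaCl2, KCl, NaCl, DTT, Triton | Reagent: Labelled myosin peptide probe, 5 nM | Doses: One dose per compound | Times: 5 min incubation before reading | Benchmarks: Neutral control DMSO, positive control TFP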
Large screens that a line does not name were inactive.

COC(=O)[C@H](Cc1c[nH]c2ccccc12)NC(=O)NCc1ccc(OC)c(OC)c1	SIRT5 block 30
COC(=O)C[C@@H]1CC[C@H]2[C@@H](COc3ccc(NC(=O)c4cccc(Cl)c4)cc3C(=O)N2C)O1	none (no result: PDI turbidity, UUG fidelity)
O=C(NCc1ccc(F)cc1)C1CC(=O)N(C2CCCCC2)C1 (stereo unspecified)	SIRT5 block 31
CCCC(=O)Nc1ccc2c(c1)C(=O)N(C)C[C@@H](OC)[C@@H](C)CN(CCC(F)(F)F)[C@@H](C)CO2	none (no result: PDI turbidity, UUG fidelity)
Nc1nc(-c2cccs2)c(CC(=O)O)s1	none
O=C(O)Cc1sc(Nc2ccc(Cl)cc2)nc1-c1cccs1	FGF22 binding 1.4 (no result: PDI turbidity, UUG fidelity)
Cc1noc(C)c1S(=O)(=O)Nc1ccc2c(c1)CC(=O)N([C@@H](C)CO)C[C@@H](C)[C@@H](CN(C)Cc1ccc(C(=O)Nc3ccccc3N)cc1)O2	none (no result: PDI turbidity, UUG fidelity)
COCC(=O)N1CC2(C1)[C@@H](c1ccc(C3=CCCC3)cc1)[C@H](CO)N2C(=O)COC	none (no result: PDI turbidity, UUG fidelity)
CCC(=O)N1C[C@H](C)[C@H](OC)CN(C)C(=O)c2cc(NC(=O)CC(F)(F)F)ccc2OC[C@H]1C	none (no result: PDI turbidity, UUG fidelity)
CCOc1ccccc1C(=O)NC(C(=O)N(C)c1c(N)n(Cc2ccccc2)c(=O)[nH]c1=O)C(C)C (stereo unspecified)	SIRT5 block 17
CCOc1ccccc1C(=O)N[C@H](C(=O)NCc1ccccc1)C(C)C	FGF22 binding 43 (no result: UUG fidelity)
Cc1ccc(S(=O)(=O)N2C[C@]3(O)C[C@@H]4C(=O)N(c5ccccc5)C(=O)[C@@H]4C[C@]3(OC(=O)Nc3cccs3)C2)cc1	FGF22 binding 43 (no result: SIRT5 block)
Cc1ccc(S(=O)(=O)N2C[C@]3(O)C[C@@H]4C(=O)N(c5ccccc5)C(=O)[C@@H]4C[C@]3(OC(=O)Nc3c(C)noc3C)C2)cc1	none
Cc1sc(N/N=C/c2ccco2)nc1-c1ccccc1	FGF22 binding 44 (no result: UUG fidelity)
CC(=O)NC[C@H]1[C@@H](c2ccc(-c3ccccc3F)cc2)[C@@H](CO)N1CCC(F)(F)F	none (no result: PDI turbidity, FGF22 binding, UUG fidelity)
CC(=O)NC[C@@H]1[C@@H](c2ccc(-c3ccccc3F)cc2)[C@@H](CO)N1CCC(F)(F)F	SIRT5 block 25 (no result: PDI turbidity, FGF22 binding, UUG fidelity)
Cn1ccnc1Sc1ccccc1[N+](=O)[O-]	FGF22 binding 43 (no result: UUG fidelity)
COc1ccc(C(=O)CC(=O)c2ccccc2O)cc1	none
COc1ccc(C(=O)CC(=O)c2ccccc2O)cc1OC	FGF22 binding 56 (no result: UUG fidelity)
O=C(COC(=O)c1ccccn1)Nc1ccccc1OC(F)F	FGF22 binding 43 (no result: UUG fidelity)
O=C(COC(=O)c1cccnc1Cl)Nc1ccccc1OC(F)F	none (no result: UUG fidelity)
CC1=Nc2cc(C(=O)O)ccc2Sc2ccc(Br)cc21	SIRT5 block 23
COc1ccccc1CNC(=O)C[C@H]1CC[C@@H]2[C@H](COC[C@@H](O)CN2C(=O)Nc2ccccc2)O1	none (no result: PDI turbidity, UUG fidelity)
CC(C)(C)S(=O)N1Cc2cc(=O)n(Cc3ccccc3)c(CCO)c2[C@H]1CCO (stereo partly specified)	SIRT5 block 26
CN(C)CC/C=C1/c2ccccc2COc2ccc(CC(=O)O)cc21	S100A4 MyoIIA 166
CC1(C)O[C@@H]2C[C@H]3[C@@H]4CCC5=CC(=O)C=C[C@]5(C)[C@@]4(F)[C@@H](O)C[C@]3(C)[C@]2(C(=O)CO)O1	none
CC1(C)OC2CC3C4CCC5=CC(=O)CCC5(C)C4(F)C(O)CC3(C)C2(C(=O)CO)O1 (stereo unspecified)	FGF22 binding 44 (no result: SIRT5 block, UUG fidelity)
CNC(=O)C[C@H]1CC[C@@H]2[C@H](COc3ccc(NC(=O)NCc4ccccc4)cc3C(=O)N2C)O1	none (no result: PDI turbidity, ERp5 block, SIRT5 block, S100A4 MyoIIA)
CCOC(=O)C1(CCCc2ccccc2)CCN(C(=O)COC)CC1	none
CCOC(=O)C1(CCCc2ccccc2)CCN(C(=O)[C@@H]2C[C@@H](C)NC(=S)N2)CC1	FGF22 binding 52
CCOC(=O)C1(CCc2ccccc2)CCN(C(=O)CCc2cnn(C)c2)CC1	FGF22 binding 44 (no result: UUG fidelity)
CC(C)(C)OC(=O)NCc1ccc(CNC(=O)c2[nH]cnc2C(=O)Nc2ccccc2F)cc1	FGF22 binding 43 (no result: SIRT5 block)
COc1cc(/C=C/C=C2/CC/C(=C/C=C/c3ccc(O)c(OC)c3)C2=O)ccc1O	PDI turbidity 39 (no result: UUG fidelity)
COc1cc(/C=C2/CC/C(=C/c3ccc(O)c(OC)c3)C2=O)ccc1O	none (no result: UUG fidelity)
